Only a part is listed here, and it is no random draw. Activity calls are given as the source filed them.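 Rule for the calls: active = activity above about 14% (limit read from the data; passing the limit was not always enough); inactive = the rest.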

Protein sequences, listed by entry. Tags and fused reporters are not part of them.
UniProt P20393, whole entry, looked up: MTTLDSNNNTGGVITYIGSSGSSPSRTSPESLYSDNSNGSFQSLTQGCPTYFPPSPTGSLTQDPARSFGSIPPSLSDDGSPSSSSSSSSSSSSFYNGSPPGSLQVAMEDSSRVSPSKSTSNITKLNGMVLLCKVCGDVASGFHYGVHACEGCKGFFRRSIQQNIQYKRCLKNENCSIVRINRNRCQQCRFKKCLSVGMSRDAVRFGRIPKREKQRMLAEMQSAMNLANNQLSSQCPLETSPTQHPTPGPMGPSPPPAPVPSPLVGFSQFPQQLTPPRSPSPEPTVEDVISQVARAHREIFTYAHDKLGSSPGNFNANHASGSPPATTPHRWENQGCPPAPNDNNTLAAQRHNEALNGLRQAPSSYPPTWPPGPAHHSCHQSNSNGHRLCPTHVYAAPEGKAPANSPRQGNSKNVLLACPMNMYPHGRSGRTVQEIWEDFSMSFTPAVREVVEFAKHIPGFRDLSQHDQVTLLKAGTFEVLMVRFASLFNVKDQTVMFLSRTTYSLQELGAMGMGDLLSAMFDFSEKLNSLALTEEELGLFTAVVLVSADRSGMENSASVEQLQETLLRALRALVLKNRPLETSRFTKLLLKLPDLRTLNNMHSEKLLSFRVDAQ

This test addresses Nuclear receptor subfamily 1 group D member 1 (Homo sapiens) (UniProt P20393). The test is described as follows: Rev-erbα–DNA interaction modulation – biochemical, FITC-DNA, fluorescence polarization, uHTS, primary screen (AID 1259318).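 Note: 0% = DMSO wells with 35 nM protein and 100% = DMSO wells with 750 nM protein.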 The conditions noted are these: Rev-erbα–FITC-DNA binding, 90 min, at 10 µM, active compounds read high.
For `CN(CCCl)CCCl`, the activity is inactive: -0.7%.

As to `CCC(=O)N(c1ccccc1)C1(COC)CCN(CCc2cccs2)CC1`, the activity was inactive: 2.08%.

On to `CCC(=O)N(c1ccccc1)C1(COC)CCN(CCn2nnn(CC)c2=O)CC1`, for which the activity is inactive: 5.68%.

The values are drawn from PubChem BioAssay AID1259318 (Sanford-Burnham Center for Chemical Genomics, 2017).
